According to patent US20200023067A1, “DUAL-ACTION ELAFIBRANOR METFORMIN SALT FOR TREATING OBESITY ASSOCIATED WITH NON-ALCOHOLIC STEATOHEPATITIS (NASH) AND […]” (NASHPHARM, priority 2016, published 2020):

Assay: Stability after exposure to light and temperature, by UPLC MS
Assay type: physicochemical
Method: The products were exposed to daylight and to ambient temperature.
The reference samples for their part are stored cool (2°-8° C.), protected from light by aluminum paper and under inert gas for the solid product.

Q: Which Degradation products detected (after 14 days of storage, UPLC MS) does the source give for “salt of metformin and of 2-[2,6 dimethyl-4-[3-[4-(methylthio)phenyl]-3-oxo-1(E)-propenyl]phenoxyl]-2-methylpropanoic acid [Elafibranor (GFT505) metformin salt]” here?
A: Its Degradation products detected is less than 5%.

Q: What about the “Change in colouring of the powder” value (powder exposed to daylight, yellow into darker yellow) of the same substance?
A: Its value is “appreciable change in colouring”.
